Data taken from article PMC7512223 (Molecular Diversity, 2020).

Chains of the proteins cited; added tags and fusions are not shown.
UniProt P27338, whole entry: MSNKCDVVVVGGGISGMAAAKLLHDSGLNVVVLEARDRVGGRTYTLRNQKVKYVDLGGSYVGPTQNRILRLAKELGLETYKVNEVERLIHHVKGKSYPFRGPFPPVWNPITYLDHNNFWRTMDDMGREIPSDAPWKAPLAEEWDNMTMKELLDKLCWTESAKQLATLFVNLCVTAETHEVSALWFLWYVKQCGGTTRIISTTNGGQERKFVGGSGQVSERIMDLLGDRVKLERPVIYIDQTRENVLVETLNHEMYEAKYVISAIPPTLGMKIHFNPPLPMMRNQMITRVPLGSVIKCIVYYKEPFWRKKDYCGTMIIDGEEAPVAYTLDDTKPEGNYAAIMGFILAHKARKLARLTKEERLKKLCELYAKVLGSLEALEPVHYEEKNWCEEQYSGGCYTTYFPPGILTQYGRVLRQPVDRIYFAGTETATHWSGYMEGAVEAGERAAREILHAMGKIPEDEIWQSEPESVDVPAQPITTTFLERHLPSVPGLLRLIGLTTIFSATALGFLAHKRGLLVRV

Target: MAO-B (Homo sapiens, UniProt P27338)
Experiment: Inhibition of recombinant human MAO-B, kynuramine fluorometric assay
Format: biochemical

IC50	SMILES
5.5 ± 0.6 nM	O=C1CCCc2cc(OCc3ccc(Cl)cc3)ccc21 [1g, 6-(4-Chlorobenzyloxy)-1-tetralone]
4 ± 0.8 nM	O=C1CCOc2cc(OCc3ccc(Cl)cc3)ccc21 [2f, 7-(4-Chlorobenzyloxy)-4-chromanone]
